These are literature values, as cited in patent US20190015484A1, “NICOTINE-DEGRADING ENZYMES FOR TREATING NICOTINE ADDICTION AND NICOTINE POISONING” (priority 2015, published 2019).

The conditions of the series: mice, endogenous; cited from earlier work.

For the substance “mouse serum albumin: endogenous mouse serum albumin”, the half-life (in general, the time in which the quantity being followed falls by half) is 35 to 40 h.
